# Patent publication US20160184322A1 (priority 2013, published 2016)
# Test system: P-glycoprotein
# Assay: P-glycoprotein protein abundance in penumbral region of injured brain (FIG. 6)
# Type: in vivo, rodents
# Details: 72 hours post-injury, compared to vehicle and sham, p<0.05
row,SMILES,protein abundance of P-glycoprotein (PGP) in the penumbral region
1,"CC(=O)[C@H]1CC[C@H]2[C@@H]3CCC4=CC(=O)CC[C@]4(C)[C@H]3CC[C@]12C [Prog, progesterone]",increase
2,"CC(=O)[C@@H]1CC[C@@H]2[C@H]3CCC4=CC(=O)CC[C@@]4(C)[C@@H]3CC[C@]21C [ent-Prog, ent-progesterone]",increase
